Results from patent US7947688B2, “N-[3-(3-substituted-pyrazolo[1,5-a]pyrimidin-7-yl)phenyl]-sulfonamides, and compositions, and methods related thereto” (Ferrer Internacional, S.A., priority 2003, dated 2011).

How the values were obtained:
[1] = target: α2-GABAA receptor (Rattus norvegicus, UniProt P18508+P23576); assay: Ligand-binding assay, radiolabeled flumazenil competition, rat spinal cord membranes; settings: radiolabeled flumazenil 1 nM, Ki from IC50 by Cheng-Prusoff, read-out: Ki, affinity for α2-GABAA receptor
Method: (§1) Determination of the affinity of test compounds for α1- and α2-GABAA receptor.
(§2) Male Sprague-Dawley rats weighing 200-250 g at the time of experiment were used. After decapitation of the animal, the cerebellum (tissue that mostly contains α1-GABAA receptor) and spinal cord (tissue that mostly contains α2-GABAA receptor) were removed. The membranes were prepared according to the method by J. Lameh et al. (Prog. Neuro-Psychopharmacol. Biol. Psychiatry, 24, 979-991, 2000). Once the tissues weighed, they were suspended in 50 mM Tris.HCl (pH 7.7), 1:40 (v/v), homogenized and then centrifuged at 20000 g for 10 min at 7° C. The resulting pellet was resuspended under the same conditions and centrifuged again. The pellet was finally resuspended on a minimum volume and kept at −80° C. overnight. On the next day, the process was repeated until the final pellet was resuspended at a ratio of 1:10 (v/v).
(§3) Affinity was determined by competitive tests using radiolabeled flumazenil as ligand. […] The next day the filters were counted using a Packard Mod. […]
(§4) Every concentrations of compound were tested in duplicate and their mean values were used to determine the experimental values of % specific binding versus the concentration of compound. […] Inhibition constants (Ki) were calculated from the IC50 values according to Cheng-Prusoff's formula (Y. Cheng y W. H. Prusoff, Biochem. Pharmacol., 22(23), 3099-3108, 1973).

[2] = target: α1-GABAA receptor (Rattus norvegicus, UniProt P18508+P62813); assay: Ligand-binding assay, radiolabeled flumazenil competition, rat cerebellum membranes; settings: radiolabeled flumazenil 1 nM, Ki from IC50 by Cheng-Prusoff, read-out: Ki, affinity for α1-GABAA receptor
Method: as §1, §2, §3, §4

`CN(c1cccc(-c2ccnc3c(C(=O)c4cccs4)cnn23)c1)S(C)(=O)=O` [Example 3, N-methyl-N-{3-[3-(thiophene-2-carbonyl)-pyrazolo[1,5-a]pyrimidin-7-yl]-phenyl}-methanesulfonamide] gave a Ki [1] of 0.0367 µM and a Ki [2] of 0.0074 µM.
